Data on three substances can be found in patent US10245262B2, “Immunological reagents and uses therefor” (THE UNIVERSITY OF QUEENSLAND, priority 2014, dated 2019).

One test concerns MAIT cells. The test can be described thus: Detection of MAIT cells in mice using MR1-tetramers. The conditions noted are these: uninfected C57BL/6 mice. The source says: FIG. 16 is a schematic showing detection of MAIT cells in mice using MR1-tetramers. Representative plots showing MAIT cell percentages among TCRβ^+ lymphocytes in a range of organs from uninfected C57BL/6 and MR1^−/− mice. MAIT cells are defined here as TCRβ^+Tetramer^+ cells. “MR1-Tetramer”=mouse MR1-5-OP-RU tetramers. Numbers represent MAIT cells as a percentage of TCRβ^+ lymphocytes.

The subject of test [1] is human MAIT cells present in PBMCs. The test can be described thus: Tetramer staining of human PBMCs. Type of test: cell-based. The conditions noted are these: tetramers at 1.4 μg/ml. Here is the method:
For co-staining with wild-type and K43A-MR1 tetramers, approximately 5×10^5 human PBMCs were stained with K43A-MR1-5-OP-RU-PE tetramer at 20 μg/ml for 40 minutes at room temperature in the dark. Cells were then washed and stained with w.t. MR1-5-OP-RU-BV tetramer at 1.4 μg/ml, CD3-AlexaFluor700 (EBioscience), CD161-PE-Cy7 (Biolegend), CD4-APC-Cy7 (Biolegend) and CD8α-PerCp-Cy5.5 (BD) for 30 minutes at 4° C. Cells were then washed once with 2 ml of FACS wash (2% fetal bovine serum in PBS) and resuspended in 150 μl of FACS fix (2% glucose and 1% paraformaldehyde in PBS) prior to acquisition of data on a BD LSR-Fortessa. Data were analyzed using FlowJo analysis software (Tree Star, Ashland, Oreg.).
For single staining with either MR1-5-OP-RU or MR1-5-OE-RU tetramers, human PBMCs were stained as above with w.t. MR1-5-OP-RU-PE or w.t. MR1-5-OE-RU-PE tetramers at 1.4 ug/ml, and CD3-AlexaFluor700 (EBioscience), CD161-PE-Cy7 (Biolegend), CD4-APC-Cy7 (Biolegend) and CD8α-PerCp-Cy5.5 (BD) for 30 minutes at 4° C., prior to acquisition of data on a BD LSR-Fortessa.

Regarding “MR1-5-OP-RU tetramers: mouse MR1-5-OP-RU tetramers used to detect MAIT cells in mice”, in the test on MAIT cells, the “detection of MAIT cells in organs” value is “can be used to detect MAIT cells in many organs of wt mice”.
Turning to “MR1-5-OP-RU: human MR1 refolded with 5-A-RU and methylglyoxal, biotinylated and tetramerized with streptavidin”, in test [1], the “staining of human MAIT cells” value is on record as “efficiently stained all human MAIT cells present in PBMCs”.
In the case of “MR1-5-OE-RU: human MR1 refolded with 5-A-RU and glyoxal, biotinylated and tetramerized with streptavidin”, the “staining of human MAIT cells” value in test [1] is on record as “efficiently stained all human MAIT cells present in PBMCs”.
